The target of assay [1] is T1, M1mAChR (Homo sapiens, UniProt P11229).
The target of assay [2] is T1, M1mAChR. This is another data set of the same source.
Assay [3] has as its target T1, M1mAChR. The source holds these as a separate data set.
Assay [4] addresses T1, M1mAChR. This is another data set of the same source.
In assay [5] the target is T1, M1mAChR. This is another data set of the same source.
In assay [6] the target is T1, M1mAChR. As to conditions: calcium assay and commercial β-arrestin recruitment method. A general note: Recruitment of arrestin is a read-out of receptor activation apart from second messengers.
Assay [7] addresses T1, M1mAChR. As to conditions: Scopolamine 100 μM; agonist 1 μM (Pilocarpine 300 μM); mean response 100 s before vs after antagonist.

Sequences of proteins named here, by UniProt entry; tags and fusion partners are left off. A change or cut given only in a name is not applied to a line headed by its entry.
UniProt P11229: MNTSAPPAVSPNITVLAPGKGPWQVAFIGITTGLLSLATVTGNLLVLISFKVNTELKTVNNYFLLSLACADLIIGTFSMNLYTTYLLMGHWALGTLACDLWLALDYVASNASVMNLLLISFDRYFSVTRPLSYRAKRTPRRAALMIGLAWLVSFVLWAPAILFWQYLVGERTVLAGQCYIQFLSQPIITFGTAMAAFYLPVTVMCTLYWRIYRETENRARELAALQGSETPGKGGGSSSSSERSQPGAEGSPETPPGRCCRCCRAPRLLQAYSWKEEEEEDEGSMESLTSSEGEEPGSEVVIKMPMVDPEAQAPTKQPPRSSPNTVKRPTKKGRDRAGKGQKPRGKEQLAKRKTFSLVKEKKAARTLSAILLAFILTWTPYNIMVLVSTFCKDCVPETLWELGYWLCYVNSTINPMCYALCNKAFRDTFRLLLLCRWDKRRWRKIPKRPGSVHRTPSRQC

Turning to `CCCCCCOc1nsnc1C1=CCCN(C)C1` [Xanomeline], the “Gαq (BRET) (Δlog (τ/KA))” value at M1mAChR [1] was determined as 1.58 ± 0.050. On M1mAChR [2], the “Gαq (Fluo4-AM) (Δlog (τ/KA))” value is recorded as 0.32 ± 0.002. Further, at M1mAChR [3], the “bias factor (Gαq vs β-arrestin2)” value is 4.5 and the “∆∆RAi (Gαq − β-arrestin2)” value is on record as 0.6. For the same molecule, the “β-Arrestin (BRET) (Δlog (τ/KA))” value on M1mAChR [4] worked out at 0.94 ± 0.030. For the same molecule, the “β-Arrestin (FRET) (Δlog (τ/KA))” value at M1mAChR [5] is given as −0.29 ± 0.020. On M1mAChR [6], the “signaling bias by commercial methods” value is “predominantly biased towards Gαq”. Also, the “decrease of agonist-induced Gαq BRET response by Scopolamine” value at M1mAChR [7] is recorded as “approximately 49%”.

Values taken from PMC10138654, “Structural Insights into M1 Muscarinic Acetylcholine Receptor Signaling Bias between Gαq and β-Arrestin through BRET Assays and Molecular Docking” (International Journal of Molecular Sciences, 2023).
